Test system: Rattus norvegicus
Experiment: Toxicity in intramuscular dosed rat after 24 hrs
Conditions: in vivo, im

Compound `O/N=C/c1cc[n+](CCCC[n+]2ccc(/C=N/O)cc2)cc1.[Br-].[Br-]` has an LD50 of 49 mg/kg.
For `O/N=C/c1cc[n+](C/C=C/C[n+]2ccc(/C=N/O)cc2)cc1.[Br-].[Br-]`, the LD50 was 71.3 mg/kg.
